# Reference: PubChem BioAssay AID624101 (Broad Institute, 2012)
# The chains behind the UniProt entries cited, without tags or fusion partners.
# UniProt O75874, whole entry, looked up: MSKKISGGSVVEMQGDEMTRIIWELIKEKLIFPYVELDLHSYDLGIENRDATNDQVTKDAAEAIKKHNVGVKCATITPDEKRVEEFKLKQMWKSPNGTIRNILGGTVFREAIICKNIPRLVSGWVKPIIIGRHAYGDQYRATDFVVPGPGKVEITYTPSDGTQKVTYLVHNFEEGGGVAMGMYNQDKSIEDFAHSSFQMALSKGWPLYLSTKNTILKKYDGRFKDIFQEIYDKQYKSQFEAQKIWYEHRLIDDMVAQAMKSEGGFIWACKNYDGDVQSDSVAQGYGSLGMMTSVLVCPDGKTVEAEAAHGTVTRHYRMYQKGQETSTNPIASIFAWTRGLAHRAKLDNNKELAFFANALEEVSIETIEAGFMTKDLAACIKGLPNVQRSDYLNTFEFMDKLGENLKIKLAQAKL
# The entries are a selection whose mix differs from that of the whole data set. Active and inactive are the calls of the source. Cut-off read from the data, not from the text of the source: active = inhibition above about 34%; inconclusive = no clear call, values can overlap the other calls; inactive = below about 11%.
# Biological target: Isocitrate dehydrogenase [NADP] cytoplasmic (Homo sapiens) (UniProt O75874)
# Assay: PubChem AID 624101;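 note: 0% = DMSO and 100% = no enzyme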
# Settings: IDH1 R132H reductase, diaphorase/resazurin fluorescence, 60 min; at 10 µM; hits give high values
row,SMILES,inhibition
1,CN(C(=O)Cc1ccc(Cl)c(Cl)c1)C1CCCCC1N1CCCC1 (configuration not stated),inactive: -0.583%
2,CN(C(=O)Cc1ccc(Cl)c(Cl)c1)[C@H]1CCCC[C@@H]1N1CCCC1,inactive: -0.168%
